Earlier results, collected in patent US20250302717A1, “Systems and Methods for Making Personal Care Products” (published 2025).

System: skin, immune system, respiratory tract

## OCCN(CCO)CCO
  toxicity in humans: toxic to the skin, the immune system, and the respiratory tract
